Reference: patent publication US8586103B2, “Non-polymeric compositions for controlled drug delivery” (Foresee Pharmaceuticals, LLC, priority 2008, dated 2013)

Assay: Stability of the octreotide in formulations at room temperature over time (HPLC)
Format: physicochemical
Settings: SAIB/NMP formulation, after seven days at room temperature
Text: Those peaks were not observed from the formulation at the beginning, indicating the generation of impurities or degradation products of the octreotide. The intensity of these peaks increased with the increase of time, while the peak for octreotide decreases over time. […] Therefore, this type of formulation must be modified to be suitable for controlled release delivery of various bioactive substances.
Octreotide acetate (OCT-Ac), octreotide dodecyl sulfate (OCT-SDS) and octreotide docusate (OCT-DSS) complex powders were dissolved in NMP. Then the solutions containing various salt forms of octreotide were thoroughly mixed with SAIB solution in NMP (90% w/w).
After two hours, about 4% of the octreotide was degraded or reacted.

| Substance | degradation of the octreotide detected |
| --- | --- |
| octreotide docusate [OCT-DSS] | little or no degradation |
| octreotide dodecyl sulfate [OCT-SDS] | little or no degradation |
